From publication PMC8427951, “Design, synthesis, and preliminary evaluation of a potential synthetic opioid rescue agent” (Journal of Biomedical Science, 2021)
“And” between values parts separate entries of the source, which are not always exact repeats. Equal entries are not always repeated.

Sequences of proteins named here, by UniProt entry; tags and fusion partners are left off.
UniProt P35372, whole entry: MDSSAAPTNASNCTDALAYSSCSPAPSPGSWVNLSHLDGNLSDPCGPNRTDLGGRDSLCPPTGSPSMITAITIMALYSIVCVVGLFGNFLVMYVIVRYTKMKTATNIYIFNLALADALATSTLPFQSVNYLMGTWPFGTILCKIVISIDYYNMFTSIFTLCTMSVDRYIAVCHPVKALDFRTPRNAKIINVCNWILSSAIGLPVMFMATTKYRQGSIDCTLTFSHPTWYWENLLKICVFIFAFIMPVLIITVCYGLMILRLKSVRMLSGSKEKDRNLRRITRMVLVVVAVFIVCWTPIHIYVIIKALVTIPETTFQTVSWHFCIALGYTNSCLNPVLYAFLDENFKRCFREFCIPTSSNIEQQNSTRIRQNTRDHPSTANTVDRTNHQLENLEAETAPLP

Legend:
[1] = target: T1, human μ opioid receptor (MOR) (Homo sapiens, UniProt P35372); assay: Forskolin-induced cAMP accumulation (HitHunter cAMP assay), MOR agonism; details: mean ± SEM; for MOR agonism % efficacy: percent stimulation; for EC50: read-out: MOR agonism EC50, at least three measurements
[2] = target: T1, human μ opioid receptor (MOR); assay: Forskolin-induced cAMP accumulation (HitHunter cAMP assay), MOR antagonism versus fentanyl; details: versus EC90 of fentanyl; for IC50: read-out: MOR antagonism IC50, at least three measurements; for IC50 / MOR antagonism Imax (degree of antagonism): 15 min pretreatment, mean ± SEM; for MOR antagonism Imax (degree of antagonism): normalized to 4b

## O=C1CC[C@@]2(O)[C@H]3Cc4cccc5c4[C@@]2(CCN3CC2CC2)[C@H]1O5
[1]
  MOR agonism % efficacy: 27.42 ± 5.41%
  EC50: 139 nM
[2]
  IC50: > 10000 nM

## CCO[C@@]12CCC(=O)[C@@H]3Oc4c(O)ccc5c4[C@@]31CCN(CC1CC1)[C@@H]2C5
[1]
  MOR agonism % efficacy: 49.66 ± 8.51%
  EC50: 0.44 nM
[2]
  IC50: 3.97 nM
  MOR antagonism Imax (degree of antagonism): 89.24 ± 5.87%

## O=C1CC[C@@]2(OCCCc3ccccc3)[C@H]3Cc4ccc(O)c5c4[C@@]2(CCN3CC2CC2)[C@H]1O5
[1]
  MOR agonism % efficacy: 101.01 ± 1.86%

## COC(=O)/C=C/C(=O)N[C@@H]1CC[C@@]2(O)[C@H]3Cc4ccc(O)c5c4[C@@]2(CCN3CC2CC2)[C@H]1O5
[2]; pretreatment time 2 h
  level of antagonism with longer pretreatment: full level of antagonism
[2]
  MOR antagonism Imax (degree of antagonism): 60.0% and 59.98 ± 9.42%

## COc1ccc2c3c1O[C@H]1C(=O)CC[C@@]4(O)[C@@H](C2)N(CC2CC2)CC[C@]314
[1]
  MOR agonism % efficacy: 45.87 ± 8.62%
  EC50: 103 nM
[2]
  IC50: > 10000 nM

## CO[C@@]12CCC(=O)[C@@H]3Oc4c(O)ccc5c4[C@@]31CCN(CC1CC1)[C@@H]2C5
[1]
  MOR agonism % efficacy: 25.31 ± 2.76%
  EC50: 2.99 nM
[2]
  IC50: 13.3 nM
  MOR antagonism Imax (degree of antagonism): 71.74 ± 12.10%

## Oc1ccc2c3c1O[C@H]1CCC[C@@]4(O)[C@@H](C2)N(CC2CC2)CC[C@]314
[1]
  MOR agonism % efficacy: 31.69 ± 3.69%
  EC50: 0.88 nM
[2]
  IC50: 8.83 nM
  MOR antagonism Imax (degree of antagonism): 121.83 ± 5.64%

## O=C1CC[C@@]2(OCc3ccccc3)[C@H]3Cc4ccc(O)c5c4[C@@]2(CCN3CC2CC2)[C@H]1O5
[1]
  MOR agonism % efficacy: 19.98 ± 1.1%
  EC50: 15.4 nM
[2]
  IC50: 39 nM
  MOR antagonism Imax (degree of antagonism): 102.54 ± 26.42%

## O=C(CCc1ccccc1)O[C@@]12CCC(=O)[C@@H]3Oc4c(O)ccc5c4[C@@]31CCN(CC1CC1)[C@@H]2C5
[1]
  MOR agonism % efficacy: 78.98 ± 3.84%
